Assay results: article PMC6254286, “Quantitative Structure − Antiprotozoal Activity Relationships of Sesquiterpene Lactones ^†” (Molecules, 2009)

System: Trypanosoma brucei rhodesiense STIB 900
Assay: In vitro activity against T. brucei rhodesiense bloodstream forms (Alamar blue)
Type: cell-based
Conditions: ratio of cytotoxic IC50 (L6) over IC50 against Tbr
Procedure: Trypanosoma brucei rhodesiense and cytotoxicity against L6 cells. Minimum Essential Medium with Earle’s salts (50 µL) supplemented with 0.2 mM 2-mercapto-ethanol, 1 mM Na-pyruvate and 15% heat-inactivated horse serum was added to each well of a 96-well microtiter plate. […] Then 10^4 bloodstream forms of Trypanosoma brucei rhodesiense STIB 900 in 50 µL of medium were added to each well and the plate incubated at 37°C under a 5% CO2 atmosphere for 72 hours. […] The plate was then read in a Spectramax Gemini XS microplate fluorometer (Molecular Devices Corporation, Sunnyvale, CA, USA) using an excitation wavelength of 536 nm and emission wavelength of 588 nm. Fluorescence development was measured and expressed as percentage of the control. Data were transferred into the graphic programme Softmax Pro (Molecular Devices) which calculated IC50 values. Cytotoxicity was assessed using a similar protocol and rat skeletal myoblasts (L6 cells). […] All following steps were according to the T. b. rhodesiense protocol.

C=C1C(=O)O[C@@H]2C[C@@H](C)[C@@H]3C=CC(=O)[C@@]3(C)[C@@H](O)[C@H]12 [Compound 1, helenalin]
selectivity index (SI) with respect to Tbr: 19 | selectivity index (SI) with respect to Tbr (listed as helenalin): about 10
